Measured values from ChEMBL document CHEMBL4251644, “Synthesis and biological characterization of novel rose bengal derivatives with improved amphiphilicity for sono-photodynamic therapy” (Eur J Med Chem, 2018).

How the values were obtained:
Assay type in all cases: functional, cell-based
HepG2 = experiment: Photodynamic anticancer activity in human HepG2 cells preincubated for 2 hrs followed by light exposure at 27 J/cm2 for 30 mins and subsequent incubation for 24 hrs by MTT assay
MCF7 = experiment: Photodynamic anticancer activity in human MCF7 cells preincubated for 2 hrs followed by light exposure at 27 J/cm2 for 30 mins and subsequent incubation for 24 hrs by MTT assay
B16-F10 = experiment: Photodynamic anticancer activity in mouse B16F10 cells preincubated for 2 hrs followed by light exposure at 27 J/cm2 for 30 mins and subsequent incubation for 24 hrs by MTT assay

Measured: Activity

COCCOCCOC(=O)CCCCCCCOC(=O)c1c(Cl)c(Cl)c(Cl)c(Cl)c1-c1c2cc(I)c(=O)c(I)c-2oc2c(I)c(O)c(I)cc12
active: HepG2 = Dose-dependent effect | MCF7 = Dose-dependent effect | B16-F10 = Dose-dependent effect

COCCOCCOCCOCCOC(=O)CCCCCCCOC(=O)c1c(Cl)c(Cl)c(Cl)c(Cl)c1-c1c2cc(I)c(=O)c(I)c-2oc2c(I)c(O)c(I)cc12
active: HepG2 = Dose-dependent effect | MCF7 = Dose-dependent effect | B16-F10 = Dose-dependent effect

O=C(CCCCCCCOC(=O)c1c(Cl)c(Cl)c(Cl)c(Cl)c1-c1c2cc(I)c(=O)c(I)c-2oc2c(I)c(O)c(I)cc12)Nc1cccc2ccccc12
active: HepG2 = Dose-dependent effect | MCF7 = Dose-dependent effect | B16-F10 = Dose-dependent effect

O=C(O)CCCCCCCOC(=O)c1c(Cl)c(Cl)c(Cl)c(Cl)c1-c1c2cc(I)c(=O)c(I)c-2oc2c(I)c(O)c(I)cc12
active: HepG2 = Dose-dependent effect | MCF7 = Dose-dependent effect | B16-F10 = Dose-dependent effect

O=C(CCCCCCCOC(=O)c1c(Cl)c(Cl)c(Cl)c(Cl)c1-c1c2cc(I)c(=O)c(I)c-2oc2c(I)c(O)c(I)cc12)Nc1cccc2cccnc12
active: HepG2 = Dose-dependent effect | MCF7 = Dose-dependent effect | B16-F10 = Dose-dependent effect

O=C([O-])c1c(Cl)c(Cl)c(Cl)c(Cl)c1-c1c2cc(I)c(=O)c(I)c-2oc2c(I)c([O-])c(I)cc12.[Na+].[Na+] [ROSE BENGAL SODIUM]
active: HepG2 = Dose-dependent effect | MCF7 = Dose-dependent effect | B16-F10 = Dose-dependent effect
